These results are taken from patent US20260384450A1, “MACROCYCLIC AMINOPYRIDINE COMPOUNDS AS EGFR INHIBITORS” (published 2026).

Sequences of proteins named here, by UniProt entry; tags and fusion partners are left off. A change or cut given only in a name is not applied to a line headed by its entry. A line that says so, or that is headed by a name, gives the form on record, which may keep a tag or linker. Residues count along the entry.
UniProt P00533, 25-1210 limits assumed: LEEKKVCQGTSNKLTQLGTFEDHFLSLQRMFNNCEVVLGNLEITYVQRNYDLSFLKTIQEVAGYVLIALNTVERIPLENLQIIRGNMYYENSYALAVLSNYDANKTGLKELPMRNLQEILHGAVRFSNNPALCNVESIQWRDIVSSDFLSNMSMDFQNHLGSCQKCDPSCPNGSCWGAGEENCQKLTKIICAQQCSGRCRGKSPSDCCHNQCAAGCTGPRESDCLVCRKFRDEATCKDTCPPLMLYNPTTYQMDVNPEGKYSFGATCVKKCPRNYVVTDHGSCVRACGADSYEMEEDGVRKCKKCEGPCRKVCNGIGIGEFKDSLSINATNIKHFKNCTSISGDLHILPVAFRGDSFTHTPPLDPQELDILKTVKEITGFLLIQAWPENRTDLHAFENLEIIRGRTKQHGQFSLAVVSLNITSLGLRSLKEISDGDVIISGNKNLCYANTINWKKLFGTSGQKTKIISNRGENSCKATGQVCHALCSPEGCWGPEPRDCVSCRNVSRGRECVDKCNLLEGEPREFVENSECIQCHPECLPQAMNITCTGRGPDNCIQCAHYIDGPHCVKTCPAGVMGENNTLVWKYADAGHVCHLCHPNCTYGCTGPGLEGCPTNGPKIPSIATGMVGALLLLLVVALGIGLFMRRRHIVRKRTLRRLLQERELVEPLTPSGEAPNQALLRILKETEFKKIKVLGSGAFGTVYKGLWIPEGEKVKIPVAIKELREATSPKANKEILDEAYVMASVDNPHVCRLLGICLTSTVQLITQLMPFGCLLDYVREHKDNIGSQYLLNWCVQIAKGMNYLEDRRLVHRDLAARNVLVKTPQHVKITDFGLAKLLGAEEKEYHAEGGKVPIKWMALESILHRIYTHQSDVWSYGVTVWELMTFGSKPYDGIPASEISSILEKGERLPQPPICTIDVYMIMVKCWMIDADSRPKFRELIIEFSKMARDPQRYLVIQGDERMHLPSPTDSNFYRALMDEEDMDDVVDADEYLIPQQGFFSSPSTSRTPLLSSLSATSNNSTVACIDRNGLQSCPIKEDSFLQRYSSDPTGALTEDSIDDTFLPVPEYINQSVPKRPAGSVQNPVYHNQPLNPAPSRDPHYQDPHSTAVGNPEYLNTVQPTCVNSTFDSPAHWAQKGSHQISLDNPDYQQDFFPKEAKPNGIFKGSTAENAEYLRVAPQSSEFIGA
UniProt P00533, 25-1210 C797S/L858R limits assumed: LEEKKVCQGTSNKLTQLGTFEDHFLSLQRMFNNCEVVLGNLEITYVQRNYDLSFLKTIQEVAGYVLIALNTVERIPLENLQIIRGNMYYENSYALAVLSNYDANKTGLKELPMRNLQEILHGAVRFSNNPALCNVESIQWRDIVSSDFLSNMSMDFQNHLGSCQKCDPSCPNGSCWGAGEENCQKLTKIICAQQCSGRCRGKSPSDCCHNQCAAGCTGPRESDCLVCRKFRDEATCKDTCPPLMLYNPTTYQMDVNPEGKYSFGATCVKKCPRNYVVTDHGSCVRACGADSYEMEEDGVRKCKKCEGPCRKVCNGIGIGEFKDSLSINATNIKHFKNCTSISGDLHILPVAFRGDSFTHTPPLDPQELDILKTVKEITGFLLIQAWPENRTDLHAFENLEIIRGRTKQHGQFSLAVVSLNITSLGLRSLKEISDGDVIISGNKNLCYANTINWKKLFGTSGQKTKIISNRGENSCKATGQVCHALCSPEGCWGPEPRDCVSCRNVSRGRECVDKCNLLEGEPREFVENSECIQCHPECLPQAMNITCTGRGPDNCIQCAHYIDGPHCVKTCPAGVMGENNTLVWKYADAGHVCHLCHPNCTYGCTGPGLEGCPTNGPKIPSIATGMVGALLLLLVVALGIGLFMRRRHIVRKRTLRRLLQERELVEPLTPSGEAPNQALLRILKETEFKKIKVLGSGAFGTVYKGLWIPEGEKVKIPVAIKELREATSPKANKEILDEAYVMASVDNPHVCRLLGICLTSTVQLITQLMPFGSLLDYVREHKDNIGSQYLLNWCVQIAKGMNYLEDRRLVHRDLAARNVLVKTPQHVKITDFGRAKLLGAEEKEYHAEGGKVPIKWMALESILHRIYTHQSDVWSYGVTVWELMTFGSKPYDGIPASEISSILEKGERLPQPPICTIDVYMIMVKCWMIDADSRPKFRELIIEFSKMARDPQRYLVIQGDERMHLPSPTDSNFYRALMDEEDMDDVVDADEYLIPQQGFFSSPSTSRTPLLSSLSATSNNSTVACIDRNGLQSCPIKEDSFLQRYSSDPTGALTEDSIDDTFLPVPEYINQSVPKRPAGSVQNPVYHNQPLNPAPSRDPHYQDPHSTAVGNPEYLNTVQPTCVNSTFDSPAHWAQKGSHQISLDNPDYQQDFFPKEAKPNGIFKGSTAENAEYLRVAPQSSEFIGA
UniProt P00533, 25-1210 T790M/C797S/L858R limits assumed: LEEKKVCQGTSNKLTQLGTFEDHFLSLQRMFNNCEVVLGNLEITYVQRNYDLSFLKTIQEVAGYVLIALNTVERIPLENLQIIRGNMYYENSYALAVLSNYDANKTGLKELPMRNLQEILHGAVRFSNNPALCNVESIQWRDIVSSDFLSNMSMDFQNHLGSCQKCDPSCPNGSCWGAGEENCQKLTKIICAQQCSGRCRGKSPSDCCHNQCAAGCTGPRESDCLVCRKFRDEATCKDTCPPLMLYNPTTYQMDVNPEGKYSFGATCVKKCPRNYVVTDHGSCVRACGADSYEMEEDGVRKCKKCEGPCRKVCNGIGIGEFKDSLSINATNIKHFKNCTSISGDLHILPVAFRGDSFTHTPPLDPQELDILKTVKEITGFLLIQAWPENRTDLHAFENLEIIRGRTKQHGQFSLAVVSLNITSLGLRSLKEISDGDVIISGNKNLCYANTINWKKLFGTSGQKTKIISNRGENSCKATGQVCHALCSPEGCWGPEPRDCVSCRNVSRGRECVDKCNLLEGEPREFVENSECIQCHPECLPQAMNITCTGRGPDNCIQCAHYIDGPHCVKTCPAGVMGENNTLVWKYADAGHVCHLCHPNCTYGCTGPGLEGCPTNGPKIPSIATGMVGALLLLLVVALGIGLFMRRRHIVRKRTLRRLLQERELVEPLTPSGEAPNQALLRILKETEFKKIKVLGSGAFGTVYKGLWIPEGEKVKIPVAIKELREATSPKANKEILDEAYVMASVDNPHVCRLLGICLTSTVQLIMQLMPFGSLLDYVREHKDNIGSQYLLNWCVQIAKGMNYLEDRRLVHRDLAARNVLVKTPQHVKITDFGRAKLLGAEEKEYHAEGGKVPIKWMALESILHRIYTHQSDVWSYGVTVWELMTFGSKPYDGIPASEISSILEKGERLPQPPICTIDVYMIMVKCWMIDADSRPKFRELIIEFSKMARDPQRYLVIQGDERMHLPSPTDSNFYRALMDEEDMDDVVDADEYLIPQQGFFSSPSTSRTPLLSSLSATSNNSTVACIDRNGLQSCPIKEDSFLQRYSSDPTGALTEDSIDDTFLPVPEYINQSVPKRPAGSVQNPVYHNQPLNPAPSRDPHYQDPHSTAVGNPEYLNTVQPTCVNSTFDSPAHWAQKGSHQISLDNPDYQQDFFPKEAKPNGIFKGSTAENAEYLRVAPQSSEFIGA
UniProt P00533, with tags, fused parts or gaps DEL746-750/C797S limits assumed: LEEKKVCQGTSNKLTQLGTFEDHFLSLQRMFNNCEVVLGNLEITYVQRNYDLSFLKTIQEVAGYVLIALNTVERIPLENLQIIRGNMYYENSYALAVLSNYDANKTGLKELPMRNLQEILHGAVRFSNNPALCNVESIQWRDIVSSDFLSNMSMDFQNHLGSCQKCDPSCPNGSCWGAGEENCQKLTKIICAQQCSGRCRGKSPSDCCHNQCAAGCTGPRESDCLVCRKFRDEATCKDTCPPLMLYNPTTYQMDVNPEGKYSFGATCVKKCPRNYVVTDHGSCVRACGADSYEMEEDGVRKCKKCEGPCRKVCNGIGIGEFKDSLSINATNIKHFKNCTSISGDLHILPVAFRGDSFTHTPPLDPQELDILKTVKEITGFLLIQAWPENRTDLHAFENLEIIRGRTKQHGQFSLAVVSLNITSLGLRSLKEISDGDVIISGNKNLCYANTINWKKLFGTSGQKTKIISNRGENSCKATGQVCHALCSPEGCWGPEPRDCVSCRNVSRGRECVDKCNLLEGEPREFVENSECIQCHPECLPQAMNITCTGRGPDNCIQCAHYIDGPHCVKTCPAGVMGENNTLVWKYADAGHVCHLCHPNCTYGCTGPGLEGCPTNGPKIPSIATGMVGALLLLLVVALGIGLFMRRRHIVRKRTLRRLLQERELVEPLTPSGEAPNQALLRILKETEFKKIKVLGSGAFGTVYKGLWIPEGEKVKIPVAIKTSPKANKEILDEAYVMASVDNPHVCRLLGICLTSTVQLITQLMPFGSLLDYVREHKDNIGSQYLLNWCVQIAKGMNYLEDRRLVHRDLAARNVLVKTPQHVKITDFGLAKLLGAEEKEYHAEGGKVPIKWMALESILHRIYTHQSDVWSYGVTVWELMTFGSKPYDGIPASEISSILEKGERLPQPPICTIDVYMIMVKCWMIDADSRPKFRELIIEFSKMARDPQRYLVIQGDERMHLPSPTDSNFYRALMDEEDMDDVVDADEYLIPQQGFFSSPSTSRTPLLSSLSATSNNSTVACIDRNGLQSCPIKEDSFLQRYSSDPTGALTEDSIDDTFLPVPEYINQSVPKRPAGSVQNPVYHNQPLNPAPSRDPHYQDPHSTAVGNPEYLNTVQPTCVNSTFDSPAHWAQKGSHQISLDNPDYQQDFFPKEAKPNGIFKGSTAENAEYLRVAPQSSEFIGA
UniProt P00533, with tags, fused parts or gaps DEL746-750/T790M/C797S limits assumed: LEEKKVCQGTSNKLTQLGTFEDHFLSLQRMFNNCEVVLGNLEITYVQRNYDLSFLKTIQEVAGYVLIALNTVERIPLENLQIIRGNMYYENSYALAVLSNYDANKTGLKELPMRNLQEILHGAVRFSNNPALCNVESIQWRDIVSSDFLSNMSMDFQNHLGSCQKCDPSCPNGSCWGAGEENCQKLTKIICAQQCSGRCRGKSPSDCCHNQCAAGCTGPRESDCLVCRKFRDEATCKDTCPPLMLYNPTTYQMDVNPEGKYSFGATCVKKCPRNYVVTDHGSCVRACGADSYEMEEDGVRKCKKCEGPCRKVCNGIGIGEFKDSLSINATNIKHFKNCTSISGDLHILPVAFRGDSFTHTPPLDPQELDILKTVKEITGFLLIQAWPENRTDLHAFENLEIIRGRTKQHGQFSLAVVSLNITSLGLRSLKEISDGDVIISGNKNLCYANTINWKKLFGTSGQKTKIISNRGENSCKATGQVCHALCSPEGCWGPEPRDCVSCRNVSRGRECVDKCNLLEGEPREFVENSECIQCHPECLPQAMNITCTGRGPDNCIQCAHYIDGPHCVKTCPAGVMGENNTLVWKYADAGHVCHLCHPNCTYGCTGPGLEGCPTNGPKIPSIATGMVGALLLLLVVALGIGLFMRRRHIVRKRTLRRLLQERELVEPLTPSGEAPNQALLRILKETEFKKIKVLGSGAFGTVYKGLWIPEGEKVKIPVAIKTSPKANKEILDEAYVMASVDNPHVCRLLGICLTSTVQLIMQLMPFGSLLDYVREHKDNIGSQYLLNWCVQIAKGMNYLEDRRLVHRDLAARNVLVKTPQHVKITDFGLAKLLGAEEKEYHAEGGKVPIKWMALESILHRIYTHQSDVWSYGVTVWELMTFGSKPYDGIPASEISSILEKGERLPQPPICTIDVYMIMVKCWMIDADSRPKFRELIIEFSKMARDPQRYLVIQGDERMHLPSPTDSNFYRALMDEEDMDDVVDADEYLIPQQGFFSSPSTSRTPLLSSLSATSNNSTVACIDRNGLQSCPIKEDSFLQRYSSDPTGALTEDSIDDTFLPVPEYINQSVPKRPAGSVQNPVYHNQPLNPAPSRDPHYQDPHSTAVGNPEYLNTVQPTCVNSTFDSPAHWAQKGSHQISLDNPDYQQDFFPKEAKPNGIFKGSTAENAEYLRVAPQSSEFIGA

Assay [1] addresses EGFR D19TMCS (del19/T790M/C797S) (Homo sapiens, UniProt P00533, C797S/DEL746-750/T790M). In words: Biochemical EGFR kinase assay (Lance Ultra TR-FRET), triple mutant del19/T790M/C797S.
Assay [2] addresses EGFR LRTMCS (L858R/T790M/C797S) (Homo sapiens, UniProt P00533, C797S/L858R/T790M). Put plainly: Biochemical EGFR kinase assay (Lance Ultra TR-FRET), triple mutant L858R/T790M/C797S.
For another assay, the target named is EGFR D19CS (del19/C797S) (Homo sapiens, UniProt P00533, C797S/DEL746-750). In words: Biochemical EGFR kinase assay (Lance Ultra TR-FRET), double mutant del19/C797S.
A further assay addresses EGFR LRCS (L858R/C797S) (Homo sapiens, UniProt P00533, C797S/L858R). Put plainly: Biochemical EGFR kinase assay (Lance Ultra TR-FRET), double mutant L858R/C797S.
The target of a further assay is EGFR WT (Homo sapiens, UniProt P00533). Put plainly: Biochemical EGFR kinase assay (Lance Ultra TR-FRET), wildtype.
Setting [3] is: read-out: EGFR D19TMCS IC50, ATP 1 mM.
Where [4] appears, read: read-out: EGFR D19TMCS IC50, ATP Km.
[5] abbreviates: read-out: EGFR LRTMCS IC50, ATP 1 mM.
Where [6] appears, read: read-out: EGFR LRTMCS IC50, ATP Km.
[7] abbreviates: read-out: EGFR D19CS IC50, ATP 1 mM.
The mark [8] stands for this setting: read-out: EGFR D19CS IC50, ATP Km.
[9] abbreviates: read-out: EGFR LRCS IC50, ATP 1 mM.
The mark [10] stands for this setting: read-out: EGFR LRCS IC50, ATP Km.
The mark [11] stands for this setting: read-out: EGFR WT IC50, ATP 1 mM.
Where [12] appears, read: read-out: IC50, EGFR D19TMCS, Km, ATP at Km, EGFR del19/T790M/C797S.
[13] abbreviates: read-out: IC50, EGFR LRTMCS, 1 mM, ATP 1 mM, EGFR L858R/T790M/C797S.
The mark [14] stands for this setting: read-out: IC50, EGFR LRTMCS, Km, ATP at Km, EGFR L858R/T790M/C797S.
Setting [15] is: read-out: IC50, EGFR-D19CS, 1 mM, ATP 1 mM, EGFR del19/C797S.
Setting [16] is: read-out: IC50, EGFR-D19CS, Km, ATP at Km, EGFR del19/C797S.
Setting [17] is: read-out: IC50, EGFR-LRCS, 1 mM, ATP 1 mM, EGFR L858R/C797S.
Where [18] appears, read: read-out: IC50, EGFR-LRCS, Km, ATP at Km, EGFR L858R/C797S.
[19] abbreviates: read-out: IC50, EGFR WT, 1 mM, ATP 1 mM, EGFR wildtype.
Setting [20] is: read-out: IC50, EGFR WT, Km, ATP at Km, EGFR wildtype.

Molecules are shown by their SMILES. Where two headings read alike, the source gives them in different places. A value given as a limit tells only on which side of the number the result lay.

Regarding `Cn1ncc2c1OCC(C(F)(F)F)CNc1cc(ncc1-c1ccn(C(F)F)n1)Nc1ccnc-2n1` (stereo not shown), the IC50 was 10 to 100 nM in assay [1] (setting [3]); under 10 nM in assay [1] (setting [4]); 10 to 100 nM in assay [2] (setting [5]); under 10 nM in assay [2] (setting [6]); over 1000 nM at EGFR D19CS (del19/C797S) (setting [7]); 100 to 1000 nM at EGFR D19CS (del19/C797S) (setting [8]). Also, the IC50 on EGFR LRCS (L858R/C797S) (setting [9]) is over 1000 nM; at EGFR LRCS (L858R/C797S) (setting [10]), 10 to 100 nM; on EGFR WT (setting [11]) it was over 1000 nM; at EGFR WT (read-out: EGFR WT IC50, ATP Km), over 1000 nM.
With `Cc1nn(C)c2c1-c1nccc(n1)Nc1cc(c(-c3ncc(CN4CCC[C@@H](O)C4)cc3F)cn1)N[C@@H](C)CCO2`, the IC50 was under 10 nM in assay [1] (setting [12]); under 10 nM in assay [2] (setting [13]); under 10 nM in assay [2] (setting [14]); 10 to 100 nM on EGFR D19CS (del19/C797S) (setting [15]); under 10 nM at EGFR D19CS (del19/C797S) (setting [16]); 10 to 100 nM on EGFR LRCS (L858R/C797S) (setting [17]). For the same compound, the IC50 on EGFR LRCS (L858R/C797S) (setting [18]) was under 10 nM; at EGFR WT (setting [19]) it was over 1000 nM; on EGFR WT (setting [20]), 10 to 100 nM.
`Cc1nn(C)c2c1-c1nccc(n1)Nc1cc(c(-c3ccc(N4CCC(N(C)C)CC4)cn3)cn1)N[C@@H](C)CCO2`: the IC50 (in assay [1] (setting [3]); in assay [1] (setting [4]); in assay [2] (setting [5]); in assay [2] (setting [6]); on EGFR D19CS (del19/C797S) (setting [7]); at EGFR D19CS (del19/C797S) (setting [8])) was under 10 nM in each case. The concentration for half-maximal inhibition (IC50) was under 10 nM on EGFR LRCS (L858R/C797S) (setting [9]); under 10 nM on EGFR LRCS (L858R/C797S) (setting [10]); over 1000 nM on EGFR WT (setting [11]); 10 to 100 nM on EGFR WT (read-out: EGFR WT IC50, ATP Km).
`Cc1nn(C)c2c1-c1nccc(n1)Nc1cc(c(-c3ncc(CN4CCN(C)CC4)cc3F)cn1)N[C@@H](C)CCO2`: the IC50 (in assay [1] (setting [3]); in assay [1] (setting [4]); in assay [2] (setting [5]); in assay [2] (setting [6]); at EGFR D19CS (del19/C797S) (setting [7]); at EGFR D19CS (del19/C797S) (setting [8])) was under 10 nM throughout. Further, the IC50 was under 10 nM on EGFR LRCS (L858R/C797S) (setting [9]); under 10 nM at EGFR LRCS (L858R/C797S) (setting [10]); over 1000 nM at EGFR WT (setting [11]); under 10 nM at EGFR WT (read-out: EGFR WT IC50, ATP Km).
For the compound `C[C@H]1CCOc2c(cnn2C)-c2nccc(n2)Nc2cc(c(-c3ncccc3OCC(F)F)cn2)N1`, the IC50 in assay [1] (setting [3]) is 100 to 1000 nM; in assay [1] (setting [4]) it was 10 to 100 nM; in assay [2] (setting [5]), 100 to 1000 nM; in assay [2] (setting [6]) it was 10 to 100 nM; on EGFR D19CS (del19/C797S) (setting [7]) it was over 1000 nM; at EGFR D19CS (del19/C797S) (setting [8]), over 1000 nM. The IC50 on EGFR LRCS (L858R/C797S) (setting [9]) is over 1000 nM; at EGFR LRCS (L858R/C797S) (setting [10]), 100 to 1000 nM; at EGFR WT (setting [11]), over 1000 nM; at EGFR WT (read-out: EGFR WT IC50, ATP Km), over 1000 nM.
As for `Cc1nn(C)c2c1-c1nccc(n1)Nc1cc(c(-c3ncc(CN4CCC(C(C)(C)O)CC4)cc3F)cn1)NCC[C@H](C)O2`, the IC50 (in assay [1] (setting [12]); in assay [2] (setting [13]); in assay [2] (setting [14]); at EGFR D19CS (del19/C797S) (setting [15]); on EGFR D19CS (del19/C797S) (setting [16]); on EGFR LRCS (L858R/C797S) (setting [17])) was under 10 nM throughout. Further, the IC50 is under 10 nM on EGFR LRCS (L858R/C797S) (setting [18]), over 1000 nM at EGFR WT (setting [19]) and under 10 nM on EGFR WT (setting [20]).
Regarding `Cc1nn(C)c2c1-c1nccc(n1)Nc1cc(c(-c3ncc(CN4CC(CC(C)(F)F)C4)cc3F)cn1)N[C@@H](C)CCO2`, the IC50 (in assay [1] (setting [3]); in assay [1] (setting [4]); in assay [2] (setting [5]); in assay [2] (setting [6]); on EGFR D19CS (del19/C797S) (setting [7]); on EGFR D19CS (del19/C797S) (setting [8])) was under 10 nM each time. Also, the IC50 on EGFR LRCS (L858R/C797S) (setting [9]) is 10 to 100 nM; on EGFR LRCS (L858R/C797S) (setting [10]), under 10 nM; on EGFR WT (setting [11]), over 1000 nM; at EGFR WT (read-out: EGFR WT IC50, ATP Km) it was 10 to 100 nM.
Take `C[C@H]1CCOc2c(cnn2C)-c2nccc(n2)Nc2cc(c(-c3csc(C(F)(F)F)n3)cn2)N1`: the 50% inhibitory concentration (IC50) in assay [1] (setting [3]) was under 10 nM; in assay [1] (setting [4]), under 10 nM; in assay [2] (setting [5]), 10 to 100 nM; in assay [2] (setting [6]) it was under 10 nM; at EGFR D19CS (del19/C797S) (setting [7]), over 1000 nM; on EGFR D19CS (del19/C797S) (setting [8]) it was 100 to 1000 nM. The IC50 on EGFR LRCS (L858R/C797S) (setting [9]) was over 1000 nM; at EGFR LRCS (L858R/C797S) (setting [10]), 10 to 100 nM; on EGFR WT (setting [11]), over 1000 nM; on EGFR WT (read-out: EGFR WT IC50, ATP Km) it was over 1000 nM.
On to `Cn1ncc2c1OCC(C)(C)CNc1cc(ncc1-c1nccc(CO)c1F)Nc1ccnc-2n1`, for which the IC50 in assay [1] (setting [3]) was 10 to 100 nM; in assay [1] (setting [4]), under 10 nM; in assay [2] (setting [5]), 10 to 100 nM; in assay [2] (setting [6]), under 10 nM; on EGFR D19CS (del19/C797S) (setting [7]), 100 to 1000 nM; at EGFR D19CS (del19/C797S) (setting [8]), 100 to 1000 nM. The IC50 on EGFR LRCS (L858R/C797S) (setting [9]) was over 1000 nM; at EGFR LRCS (L858R/C797S) (setting [10]), 10 to 100 nM; on EGFR WT (setting [11]), over 1000 nM; on EGFR WT (read-out: EGFR WT IC50, ATP Km) it was 10 to 100 nM.
